According to PubChem BioAssay AID453 (PCMD, 2006):
Only a part is listed here, and it is no random draw. Active and inactive are the calls of the source. Rule as the data show it: active = inhibition above about 21%; inactive = the rest.

Each compound was assayed against Cathepsin B (Homo sapiens) (UniProt P07858) (assay: blockers of cathepsin B proteolysis – biochemical, fluorogenic substrate, primary screen (AID 453;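 also: 0% = enzyme with no compound and 100% = no enzyme blank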)). Settings: purified cathepsin B, fluorescence, active compounds read high,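 tested at 10 µM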.

Structure (SMILES)	inhibition
N/C(=N\O)c1c(N)no[n+]1[O-]	inactive: -0.15%
CCC(CO)(C(=O)OC1CN2CCC1CC2)c1ccccc1 (stereo not given)	inactive: -0.8%
CCOc1ncccc1C(=O)NCC1(N2CCOCC2)CCCCC1	inactive: 2.31%
O=C(OC1CN2CCC1CC2)C1c2ccccc2Oc2ccccc21 (stereo not given)	inactive: -0.4%
N#CC1(Nc2ccccc2)CCN(CCc2ccccc2)CC1	inactive: 4.25%
